Results published in PubChem BioAssay AID2587 (National Center for Advancing Translational Sciences (NCATS), 2010).
The list shows a part of the results, in another mix than the full data. Active and inactive are the calls of the source. Calls come from the whole dose curve; as a rule, active = well fitted curve in the direction sought with a large enough effect; inactive = no such curve, though single readings can be large or run the other way.

Amino acid sequences for entries named in this document (tags omitted). A change or cut given only in a name is not applied to a line headed by its entry.
UniProt P04062: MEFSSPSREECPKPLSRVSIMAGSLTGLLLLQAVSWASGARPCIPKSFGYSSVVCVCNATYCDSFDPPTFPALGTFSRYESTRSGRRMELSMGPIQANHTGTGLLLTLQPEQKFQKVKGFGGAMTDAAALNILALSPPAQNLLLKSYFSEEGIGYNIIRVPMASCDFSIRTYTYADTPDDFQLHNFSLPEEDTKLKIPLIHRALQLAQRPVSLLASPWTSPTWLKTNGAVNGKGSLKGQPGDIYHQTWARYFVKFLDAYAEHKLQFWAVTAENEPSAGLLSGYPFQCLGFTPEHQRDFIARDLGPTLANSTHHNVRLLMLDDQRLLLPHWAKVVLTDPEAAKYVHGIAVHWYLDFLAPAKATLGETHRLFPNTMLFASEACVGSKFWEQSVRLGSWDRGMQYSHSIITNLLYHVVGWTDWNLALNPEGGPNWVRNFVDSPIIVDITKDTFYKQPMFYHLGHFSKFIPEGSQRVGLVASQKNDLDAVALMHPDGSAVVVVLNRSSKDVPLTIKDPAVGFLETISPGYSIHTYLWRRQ

These molecules were tested against Lysosomal acid glucosylceramidase (Homo sapiens) (UniProt P04062) (assay: qHTS Assay for Inhibitors and Activators of N370S glucocerebrosidase as a Potential Chaperone Treatment of Gaucher Disease: Chaperone Activity in Gauche Fibroblasts After Multi-day Incubation with Compound). Conditions: GC immunofluorescence, 5 days.
From the text: NIH Chemical Genomics Center [NCGC] NIH Molecular Libraries Probe Production Centers Network [MLPCN] MLPCN Grant: MH086442-01 Assay Submitter (PI): Wei Zheng Glucocerebrosidase (GC) catalyzes the hydrolysis of beta-glucocerebroside to glucose and ceramide in lysosomes. Mutations in the glucocerebrosidase gene result in Gaucher disease, an autosomal recessive lysosomal storage disorder. Many of the mutations encountered in patients with Gaucher disease are missense alterations that may cause misfolding, decreased stability and/or mistrafficking of this lysosomal protein. […] These inhibitors include iminosugar analogs and three non-iminosugar inhibitors identified from a previous HTS of 62,000 compounds with the wild type recombinant enzyme. However, the enhancement of enzyme activity by the chaperone action of an enzyme inhibitor must be balanced against the direct inhibition of the enzyme. An enzyme activator could also function as a chaperone by binding to the enzyme and helping to correct its misfolding and mistrafficking. […] This assay attempts to quantitate translocated glucocerebrosidase protein in patient-derived fibroblasts following extended compound incubation. […]
NCGC Assay Protocol Summary: 1. […] Visualized using a fluorescence microscope and the intensity of fluorescence in the selected areas were calculated. […]

Row | SMILES | Potency
1 | Cc1cc(N2CCOCC2)nc2ccc(NC(=O)C3CCCCC3)cc12 | active: 28.2 µM
